Source: patent publication US20260174734A1, “PHARMACEUTICAL COMPOSITION” (MEXICHEM FLUOR S.A. DE C.V., priority 2016, published 2026)

Experiment: In vitro aerosolization performance from MDI (Next Generation Impactor)
Assay type: physicochemical
Conditions: HFA-152a propellant, T = 0, combination formulation
Protocol: The nominal dose of glycopyrronium bromide was 50 μg, the nominal dose of indacaterol was 100 μg and the nominal dose of fluticasone propionate was 125 μg.

C[N+]1(C)CCC(OC(=O)C(O)(c2ccccc2)C2CCCC2)C1 (stereo not shown) [Glycopyrronium Bromide, glycopyrronium bromide]
FPFED (%) fine particle fraction of the emitted dose: 46.5 ± 2.9%
